Here are results for one compound from paper PMC3488302 (MedChemComm, 2012).

The structures appear in SMILES notation.

The nature of the data set: RRCK permeability. As to conditions: MDCK.

For the compound `CC(C)C[C@@H]1NC(=O)[C@H](Cc2ccc(O)cc2)N(C)C(=O)[C@H]2CCCN2C(=O)[C@H](CC(C)C)NC(=O)[C@H](CC(C)C)N(C)C(=O)[C@@H](CC(C)C)N(C)C1=O` [Compound 1], the recovery stood at 53.7%.
